Results on one compound are retold here after PMC12459184, “Design, synthesis, and bioevaluation of pyrazole-containing tubulin polymerisation inhibitors based on conformational constraint strategy” (Journal of Enzyme Inhibition and Medicinal Chemistry, 2025).

Test [1] relates to human umbilical vein endothelial cells (HUVEC). Briefly: MTT toxicity assay, normal cells HUVEC. The class given is cell-based. Particulars: SI-H = IC50 (HUVEC)/IC50 (PC-3). The protocol: (§1) The toxicity of compounds 4k and 5a was also tested by using human umbilical vein endothelial cells (HUVEC) and human liver cells (L02).
(§2) Cells grown in logarithmic phase were harvested and seeded onto 96-well cell plates at a density of 4 ∼ 5 × 10^3 cells per well (various from cell type) and were cultured for 24 h. Different concentrations of compounds were added into the wells, and the cells were cultured for another 72 h. The medium was removed, then 20 μL of MTT (5 mg/mL in PBS) was added to each well and the cells were incubated for 4 h. 150 μL of DMSO was added to each well to dissolve the formazan, and the absorbance at 490 nm of each well was measured by a microplate reader. IC50 values were calculated by SPSS software.
A general note: Formazan colour is commonly taken as a measure of viable cells.

The subject of test [2] is human liver cells (L02). Briefly: MTT toxicity assay, normal cells L02. The test is classed as cell-based. Particulars: SI-L = IC50 (L02)/IC50 (PC-3). The protocol:
as §1, §2

The test system of test [3] is tubulin. Briefly: In vitro tubulin polymerisation assay. The settings on record: 3 μM. The test is classed as biochemical. The protocol: To investigate the effect of compounds 4k and 5a on microtubule system, their tubulin polymerisation inhibition activities were evaluated using in vitro tubulin polymerisation assay.
The BK001 kit used in this test was purchased from Cytoskeleton Inc. (Denver, CO, USA). […] Then the mixtures were transferred to 37 °C and tubulin assembly was monitored (excitation wavelength: 360 nm; emission wavelength: 420 nm) at 1 min intervals for 90 min by a microplate reader.

In turn, `COc1cc2c(c(OC)c1OC)-c1ccc(OC)c(=O)cc1[C@@H](NC(C)=O)CC2` [Colchicine, reference compound] had an SI-H in test [1] of 13.95. The compound also showed an SI-L in test [2] of 0.797. The “effect on tubulin polymerisation (fluorescence intensity)” value in test [3] is “inhibition of tubulin polymerisation”.
